Test results taken from patent publication US20090099157A1, “TETRAHYDRO-PYRAZOLO-PYRIDINE THIOETHER MODULATORS OF CATHEPSIN S” (priority 2007, published 2009).

Chains of the proteins cited; added tags and fusions are not shown. Residues count along the entry.
UniProt P25774, 115-331: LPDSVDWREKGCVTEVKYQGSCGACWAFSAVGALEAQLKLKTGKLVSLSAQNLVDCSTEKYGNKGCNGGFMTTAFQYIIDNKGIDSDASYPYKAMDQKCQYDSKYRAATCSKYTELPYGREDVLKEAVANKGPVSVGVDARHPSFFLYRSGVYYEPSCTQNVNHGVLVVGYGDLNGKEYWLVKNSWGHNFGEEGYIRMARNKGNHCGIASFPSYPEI

The compounds below were run against Recombinant human cathepsin S (CatS) (Homo sapiens, UniProt P25774) (assay: biochemical).

Row | SMILES | IC50 [nM]
1 | CC1CCN(CC(O)Cn2nc(-c3ccc(C(F)(F)F)c(SCCN4CCC(F)(F)C4)c3)c3c2CCN(S(C)(=O)=O)C3)CC1 (stereo not drawn) [Example 501, 1-{3-[3-{[2-(3,3-Difluoropyrrolidin-1-yl)ethyl]sulfanyl}-4-(trifluoromethyl)phenyl]-5-(methylsulfonyl)-4,5,6,7-tetrahydro-1H-pyrazolo[4,3-c]pyridin-1-yl}-3-(4-methylpiperidin-1-yl)propan-2-ol] | 150
2 | CS(=O)(=O)N1CCc2c(c(-c3ccc(C(F)(F)F)c(SCCNC(=O)C4CCNC4)c3)nn2CC(O)CN2CCC(N3CCCC3=O)CC2)C1 (stereo not drawn) [Example 126, Pyrrolidine-3-carboxylic acid {2-[5-(1-{2-hydroxy-3-[4-(2-oxo-pyrrolidin-1-yl)-piperidin-1-yl]-propyl}-5-methanesulfonyl-4,5,6,7-tetrahydro-1H-pyrazolo[4,3-c]pyridin-3-yl)-2-trifluoromethyl-phenylsulfanyl]-ethyl}-amide] | 580
3 | CCN(CC)C(=O)N1CCc2c(c(-c3ccc(C(F)(F)F)c(SCCN4CCC(F)CC4)c3)nn2C[C@@H](O)CN2CCCCC2)C1 [Example 525, N,N-Diethyl-3-[3-{[2-(4-fluoropiperidin-1-yl)ethyl]sulfanyl}-4-(trifluoromethyl)phenyl]-1-[(2S)-2-hydroxy-3-piperidin-1-ylpropyl]-1,4,6,7-tetrahydro-5H-pyrazolo[4,3-c]pyridine-5-carboxamide] | 910
4 | CS(=O)(=O)N1CCc2c(c(-c3ccc(C(F)(F)F)c(SCCN4CCCCC4)c3)nn2CC(O)CN2CCC(Oc3ccccn3)CC2)C1 (stereo not drawn) [Example 717, 1-[5-(Methylsulfonyl)-3-{3-[(2-piperidin-1-ylethyl)sulfanyl]-4-(trifluoromethyl)phenyl}-4,5,6,7-tetrahydro-1H-pyrazolo[4,3-c]pyridin-1-yl]-3-[4-(pyridin-2-yloxy)piperidin-1-yl]propan-2-ol] | 60
5 | CS(=O)(=O)N1CCc2c(c(-c3ccc(C(F)(F)F)c(SCC(=O)Nc4cccc(-c5ccccc5)c4)c3)nn2CC(O)CN2CCC(N3CCCC3=O)CC2)C1 (stereo not drawn) [Example 70, N-Biphenyl-3-yl-2-[5-(1-{2-hydroxy-3-[4-(2-oxo-pyrrolidin-1-yl)-piperidin-1-yl]-propyl}-5-methanesulfonyl-4,5,6,7-tetrahydro-1H-pyrazolo[4,3-c]pyridin-3-yl)-2-trifluoromethyl-phenylsulfanyl]-acetamide] | 1850
6 | O[C@@H](CN1CCN(c2cccc(C(F)(F)F)c2)CC1)Cn1nc(-c2ccc(C(F)(F)F)c(SCCN3CCC(F)CC3)c2)c2c1CCNC2 [Example 689, (2S)-1-{3-[3-{[2-(4-Fluoropiperidin-1-yl)ethyl]sulfanyl}-4-(trifluoromethyl)phenyl]-4,5,6,7-tetrahydro-1H-pyrazolo[4,3-c]pyridin-1-yl}-3-{4-[3-(trifluoromethyl)phenyl]piperazin-1-yl}propan-2-ol] | 390
7 | CS(=O)(=O)N1CCc2c(c(-c3ccc(C(F)(F)F)c(SCCOc4ccccc4)c3)nn2CCCN2CCC(N3CCCC3=O)CC2)C1 [Example 137, 1-[1-(3-{5-Methanesulfonyl-3-[3-(2-phenoxy-ethylsulfanyl)-4-trifluoromethyl-phenyl]-4,5,6,7-tetrahydro-pyrazolo[4,3-c]pyridin-1-yl}-propyl)-piperidin-4-yl]-pyrrolidin-2-one] | 220
8 | CS(=O)(=O)N1CCc2c(c(-c3ccc(C(F)(F)F)c(SCCN4CCC(F)CC4)c3)nn2C[C@@H](O)CN2CCCC3CCCCC32)C1 (stereo partly drawn) [Example 648, (2S)-1-{3-[3-{[2-(4-Fluoropiperidin-1-yl)ethyl]sulfanyl}-4-(trifluoromethyl)phenyl]-5-(methylsulfonyl)-4,5,6,7-tetrahydro-1H-pyrazolo[4,3-c]pyridin-1-yl}-3-(octahydroquinolin-1(2H)-yl)propan-2-ol] | 1280
9 | CS(=O)(=O)N1CCc2c(c(-c3ccc(C(F)(F)F)c(SCCN4CCOCC4)c3)nn2CC(O)CN2CCC(C(=O)N3CCOCC3)CC2)C1 (stereo not drawn) [Example 817, 1-[5-(Methylsulfonyl)-3-{3-[(2-morpholin-4-ylethyl)sulfanyl]-4-(trifluoromethyl)phenyl}-4,5,6,7-tetrahydro-1H-pyrazolo[4,3-c]pyridin-1-yl]-3-[4-(morpholin-4-ylcarbonyl)piperidin-1-yl]propan-2-ol] | 330
10 | CC1(C)CCCN(CC(O)Cn2nc(-c3ccc(C(F)(F)F)c(SCCN4CCOCC4)c3)c3c2CCN(S(C)(=O)=O)C3)C1 (stereo not drawn) [Example 458, 1-(3,3-Dimethylpiperidin-1-yl)-3-[5-(methylsulfonyl)-3-{3-[(2-morpholin-4-ylethyl)sulfanyl]-4-(trifluoromethyl)phenyl}-4,5,6,7-tetrahydro-1H-pyrazolo[4,3-c]pyridin-1-yl]propan-2-ol] | 540
11 | CS(=O)(=O)N1CCc2c(c(-c3ccc(C(F)(F)F)c(SCCN4C=NCCC4)c3)nn2C[C@@H](O)CN2CCOCC2)C1 [Example 347, (2S)-1-{3-[3-{[2-(5,6-Dihydropyrimidin-1(4H)-yl)ethyl]sulfanyl}-4-(trifluoromethyl)phenyl]-5-(methylsulfonyl)-4,5,6,7-tetrahydro-1H-pyrazolo[4,3-c]pyridin-1-yl}-3-morpholin-4-ylpropan-2-ol] | 1850
12 | CS(=O)(=O)N1CCc2c(c(-c3ccc(C(F)(F)F)c(SCCNC(=O)C4CCNCC4)c3)nn2CC(O)CN2CCC(N3CCCC3=O)CC2)C1 (stereo not drawn) [Example 127, Piperidine-4-carboxylic acid {2-[5-(1-{2-hydroxy-3-[4-(2-oxo-pyrrolidin-1-yl)-piperidin-1-yl]-propyl}-5-methanesulfonyl-4,5,6,7-tetrahydro-1H-pyrazolo[4,3-c]pyridin-3-yl)-2-trifluoromethyl-phenylsulfanyl]-ethyl}-amide] | 850
13 | CCCNCCSc1cc(-c2nn(CCCN3CCC(NS(C)(=O)=O)CC3)c3c2CN(S(C)(=O)=O)CC3)ccc1C(F)(F)F [Example 580, N-[1-(3-{5-(Methylsulfonyl)-3-[3-{[2-(propylamino)ethyl]sulfanyl}-4-(trifluoromethyl)phenyl]-4,5,6,7-tetrahydro-1H-pyrazolo[4,3-c]pyridin-1-yl}propyl)piperidin-4-yl]methanesulfonamide] | 560
14 | CC(C)(C)OC(=O)NCC(=O)NCCSc1cc(-c2nn(CC(O)CN3CCC(N4CCCC4=O)CC3)c3c2CN(S(C)(=O)=O)CC3)ccc1C(F)(F)F (stereo not drawn) [Example 117, ({2-[5-(1-{2-Hydroxy-3-[4-(2-oxo-pyrrolidin-1-yl)-piperidin-1-yl]-propyl}-5-methanesulfonyl-4,5,6,7-tetrahydro-1H-pyrazolo[4,3-c]pyridin-3-yl)-2-trifluoromethyl-phenylsulfanyl]-ethylcarbamoyl}-methyl)-carbamic acid tert-butyl ester] | 200
15 | CS(=O)(=O)NCCSc1cc(-c2nn(CC(O)CN3CCC(N4CCCC4=O)CC3)c3c2CN(S(C)(=O)=O)CC3)ccc1C(F)(F)F (stereo not drawn) [Example 711, N-[2-({5-[1-{2-Hydroxy-3-[4-(2-oxopyrrolidin-1-yl)piperidin-1-yl]propyl}-5-(methylsulfonyl)-4,5,6,7-tetrahydro-1H-pyrazolo[4,3-c]pyridin-3-yl]-2-(trifluoromethyl)phenyl}sulfanyl)ethyl]methanesulfonamide] | 45
16 | CS(=O)(=O)N1CCc2c(c(-c3ccc(C(F)(F)F)c(SCC(=O)N4CC[C@@H](O)C4)c3)nn2CC(O)CN2CCC(c3ccc(C#N)cc3)CC2)C1 (stereo partly drawn) [Example 822, 4-[1-(2-Hydroxy-3-{3-[3-({2-[(3R)-3-hydroxypyrrolidin-1-yl]-2-oxoethyl}sulfanyl)-4-(trifluoromethyl)phenyl]-5-(methylsulfonyl)-4,5,6,7-tetrahydro-1H-pyrazolo[4,3-c]pyridin-1-yl}propyl)piperidin-4-yl]benzonitrile] | 10
17 | CS(=O)(=O)N1CCc2c(c(-c3ccc(C(F)(F)F)c(SCCN4CCCCC4)c3)nn2CC(O)CN2CCC(C(=O)N3CCCCC3)CC2)C1 (stereo not drawn) [Example 797, 1-[5-(Methylsulfonyl)-3-{3-[(2-piperidin-1-ylethyl)sulfanyl]-4-(trifluoromethyl)phenyl}-4,5,6,7-tetrahydro-1H-pyrazolo[4,3-c]pyridin-1-yl]-3-[4-(piperidin-1-ylcarbonyl)piperidin-1-yl]propan-2-ol] | 55
18 | CS(=O)(=O)NC1CCN(CC(O)Cn2nc(-c3ccc(C(F)(F)F)c(SCCN4CCC(F)(F)C4)c3)c3c2CCN(C(=O)CO)C3)CC1 (stereo not drawn) [Example 727, N-[1-(3-{3-[3-{[2-(3,3-Difluoropyrrolidin-1-yl)ethyl]sulfanyl}-4-(trifluoromethyl)phenyl]-5-(hydroxyacetyl)-4,5,6,7-tetrahydro-1H-pyrazolo[4,3-c]pyridin-1-yl}-2-hydroxypropyl)piperidin-4-yl]methanesulfonamide] | 50
19 | CS(=O)(=O)N1CCc2c(c(-c3ccc(C(F)(F)F)c(SCCN4CCC(F)CC4)c3)nn2C[C@H](O)CN2CCN(c3cccc(O)c3)CC2)C1 [Example 793, 3-{4-[(2R)-3-{3-[3-{[2-(4-Fluoropiperidin-1-yl)ethyl]sulfanyl}-4-(trifluoromethyl)phenyl]-5-(methylsulfonyl)-4,5,6,7-tetrahydro-1H-pyrazolo[4,3-c]pyridin-1-yl}-2-hydroxypropyl]piperazin-1-yl}phenol] | 35
20 | CN1CCN(CC(O)Cn2nc(-c3ccc(C(F)(F)F)c(SCCN4CCOCC4)c3)c3c2CCN(S(C)(=O)=O)C3)CC1 (stereo not drawn) [Example 396, 1-(4-Methylpiperazin-1-yl)-3-[5-(methylsulfonyl)-3-{3-[(2-morpholin-4-ylethyl)sulfanyl]-4-(trifluoromethyl)phenyl}-4,5,6,7-tetrahydro-1H-pyrazolo[4,3-c]pyridin-1-yl]propan-2-ol] | 3960
21 | CS(=O)(=O)N1CCc2c(c(-c3ccc(C(F)(F)F)c(SCCN4CCC(F)(F)CC4)c3)nn2C[C@@H](O)CN2C=NCCC2)C1 [Example 493, (2S)-1-{3-[3-{[2-(4,4-Difluoropiperidin-1-yl)ethyl]sulfanyl}-4-(trifluoromethyl)phenyl]-5-(methylsulfonyl)-4,5,6,7-tetrahydro-1H-pyrazolo[4,3-c]pyridin-1-yl}-3-(5,6-dihydropyrimidin-1(4H)-yl)propan-2-ol] | 340
